Assay type in all cases: in vivo
For one experiment, the system named is mice. As to the kind of experiment: Tail suspension assay in mice. The note with it: 30 mg/kg intraperitoneally, 60 minutes after dosing. The method, then: Another method of measuring antidepressant activity that may be used to evaluate the compounds of the present invention is the tail suspension test in mice described in Vogel, H. G. and Vogel, W. H. (Eds.) Drug Discovery and Evaluation, Springer-Verlag Berlin Heidelberg, 1997) pp. 304-3059). The mouse tail suspension assay was conducted 60 minutes after dosing. The duration of immobility was recorded for a period of 5 minutes after tail suspension was initiated, and reduction in the duration of immobility by ≥50% relative to the control group indicated antidepressant activity. Statistical analysis was also performed by using one-way ANOVA followed by Dunnett's test to compare the data of test compound-treated and vehicle control groups. Significance was considered to be P<0.05.

The next experiment concerns wild type old mice. As to the kind of experiment: Chronic 3 month treatment, novel object recognition in wild type old mice. The note with it: 10 mg/kg/day oral for 3 months. The method, then: The effects of chronic administration of the compound of Example 2 administered by oral intake (10 mg/kg/day during 3 months through access to inverted graduated 25 mL filled with tap water) on cognition in wild type old mice were studied. To examine the effect of chronic treatment for 3 months with the compound of Example 2, the novel objet recognition and the Y maze tests were used.

Experiment [1] deals with fmr1 KO mice and wild type mice. Nature of the experiment: Social behavior test in Fragile X (fmr1 KO) mouse model. The note with it: 30 mg/kg i.p. acute. The method, then:
FIG. 4A plots the time (s) that the test mouse devotes to exploring two cylinders: a first cylinder containing a familiar genotype-matched juvenile stimulus mouse and a second cylinder containing a novel stimulus mouse and the total time of exploration (both cylinders) during a 10 min session. FIG. 4B Plots the percentage of time spent near the two cylinders during the 10 min session. FIG. 4C plots the Discrimination index (time exploring the novel stimulus−time exploring the familiar stimulus/total time of exploration×100).
N=10-12 mice per group. Mice had received an acute i.p. injection of saline (WT 1st bar, fmr1 KO 3rd bar) or 30 mg/kg Example 2 (Wild Type 2nd bar, fmr1 KO 4th bar) 24 h before the session. Data are expressed as mean±S.E.M. Two way ANOVA Treatment effect Φ p<0.05, Genotype x Treatment interaction p<0.05, Bonferroni as post hoc ***p<0.001, **p<0.01, *p<0.05.
Example 2 effects on social disability in a model of Fmr1 KO was performed. […]
1) Habituation session Animals were habituated for 10 min to an arena containing two empty transparent cylinders (30 cm diameter×40 cm high) made of Plexiglas. […] The discrimination index was calculated as time exploring the novel stimulus mouse−time exploring the familiar stimulus mouse/total time of exploration×100. […]

SMILES strings stand for the structures.

As to `CNCCC(Oc1ccc(CCO)cc1)c1ccccc1.Cl` (single isomer, unassigned) [Example 2, 2-[4-[3-(Methylamino)-1-phenylpropoxy]phenyl]ethanol hydrochloride], the “reduction in the duration of immobility relative to the control group” value in the experiment on mice is listed as at least 50%. Besides, the “discrimination index, novel object recognition” value in the experiment on wild type old mice is on record as “able to restore the discrimination index”. Also, the “deficit in social recognition, discrimination index (FIG. 4C)” value in experiment [1] is recorded as “totally compensated the deficit”.

For the origin of these results see patent US9980928B2, “Hydroxy aliphatic substituted phenyl aminoalkyl ether derivatives” (PROUS INSTITUTE FOR BIOMEDICAL RESEARCH, S.A., priority 2012, dated 2018).
